According to paper PMC7695835, “Pharmacological characterisation of novel adenosine A3 receptor antagonists” (Scientific Reports, 2020):
Where two headings read alike, the source gives them in different places.

Chains of the proteins cited; added tags and fusions are not shown. Lines headed by an entry give the natural chain unless they say otherwise; changes in a name come on top.
UniProt P0DMS8, whole entry: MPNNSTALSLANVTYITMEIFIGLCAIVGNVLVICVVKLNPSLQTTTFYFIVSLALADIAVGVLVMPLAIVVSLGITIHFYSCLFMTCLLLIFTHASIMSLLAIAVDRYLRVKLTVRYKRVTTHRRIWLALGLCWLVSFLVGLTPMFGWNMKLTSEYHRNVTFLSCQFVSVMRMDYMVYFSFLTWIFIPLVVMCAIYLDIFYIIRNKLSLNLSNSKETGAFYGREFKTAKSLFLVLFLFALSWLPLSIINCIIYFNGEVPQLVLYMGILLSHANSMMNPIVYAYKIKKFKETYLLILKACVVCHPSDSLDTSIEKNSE
UniProt P28647, whole entry: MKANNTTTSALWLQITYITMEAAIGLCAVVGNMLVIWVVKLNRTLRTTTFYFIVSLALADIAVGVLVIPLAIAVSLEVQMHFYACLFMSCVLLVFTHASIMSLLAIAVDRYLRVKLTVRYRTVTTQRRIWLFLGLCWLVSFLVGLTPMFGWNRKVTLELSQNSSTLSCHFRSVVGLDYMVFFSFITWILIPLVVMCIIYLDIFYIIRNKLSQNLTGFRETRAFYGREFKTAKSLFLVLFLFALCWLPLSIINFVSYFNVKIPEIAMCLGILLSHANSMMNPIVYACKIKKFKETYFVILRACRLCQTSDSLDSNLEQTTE
UniProt P30542, whole entry: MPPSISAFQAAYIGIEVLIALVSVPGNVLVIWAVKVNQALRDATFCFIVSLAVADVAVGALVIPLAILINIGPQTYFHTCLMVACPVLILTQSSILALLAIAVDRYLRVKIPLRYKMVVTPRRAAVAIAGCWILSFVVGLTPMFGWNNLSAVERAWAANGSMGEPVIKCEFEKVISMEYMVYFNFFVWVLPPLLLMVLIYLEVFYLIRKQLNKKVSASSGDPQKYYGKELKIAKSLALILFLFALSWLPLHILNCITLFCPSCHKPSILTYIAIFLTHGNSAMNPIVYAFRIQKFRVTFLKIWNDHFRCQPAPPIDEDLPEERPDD

Tests used:
A3R [1] = molecular target: T1, A3R (Homo sapiens, UniProt P0DMS8); assay: NECA stimulated cAMP inhibition in A3R Flp-In CHO cells; type: cell-based; settings: for effect on NECA potency / antagonism: 1 μM compound; for effect on NECA potency / antagonism / effect on NECA potency: preliminary data; for True Basal: 10 µM compound + 10 µM forskolin only; for Span: 10 µM compound, difference between Emin and basal; for effect on NECA potency: 10 μM compound; for antagonistic potency: functional, Supplementary Fig. 3; for AR subtype selectivity: 10 μM antagonist, NECA curves at A3R, A1R, A2AR, A2BR
A2AR [2] = molecular target: T2, A2AR (Homo sapiens, UniProt P29274); settings: read-out: Radioligand binding Ki A2AR; 10 nM [3H]NECA; ref Lagarias et al.[19]; cited from earlier work
rat A3R = rat A3R (Rattus norvegicus, UniProt P28647); assay: NanoBRET ligand-binding, Nluc-rat A3R HEK 293 cells, AV039 tracer; settings: 100 nM AV039, BRET ratio at 5 minutes, Cheng-Prusoff
A1R [3] = molecular target: T3, A1R (Homo sapiens, UniProt P30542); type: cell-based; settings: for Basal: upper plateau
A1R [4] = molecular target: T3, A1R; assay: Inverse agonism at the A1R (cAMP, forskolin + antagonist only); settings: for Inverse agonism pEC50: A1R CHO-K1, 5 μM forskolin + increasing concentrations of compound
WT A3R = WT A3R (Homo sapiens, UniProt P0DMS8); assay: IB-MECA stimulated cAMP inhibition at WT A3R Flp-In-CHO, with Schild analysis; type: cell-based; settings: for True Basal: 10 µM compound + 10 µM forskolin only; for Span: 10 µM compound, difference between Emin and basal; for mode of antagonism at the A3R by Schild analysis: Schild slope not significantly different from unity
A3R [5] = molecular target: T1, A3R; assay: Inverse agonism at the A3R (cAMP, forskolin + antagonist only); type: cell-based; settings: 10 μM forskolin + increasing concentrations of compound, WT A3R Flp-In-CHO, 3 experiments
A2AR [6] = molecular target: T2, A2AR; assay: NECA stimulated cAMP accumulation in CHO-K1 cells expressing A2AR; type: cell-based; settings: 10 μM antagonist
A3R [7] = molecular target: T1, A3R; assay: Radioligand binding at A3R ([3H]HEMADO, CHO cell membranes); settings: from Table 1
[8] = 0.1 µM compound + forskolin only
[9] = 10 µM compound + forskolin only

| SMILES | effect on NECA potency / antagonism (A3R [1]) | True Basal (A3R [1]) | Span (A3R [1]) | effect on NECA potency (A3R [1]) | AR subtype selectivity (A3R [1]) | pKi (rat A3R) | True Basal (WT A3R) | Span (WT A3R) | mode of antagonism at the A3R by Schild analysis (WT A3R) | Inverse agonism pEC50 (A3R [5]) | Ki (A2AR [2]) | also measured |
| --- | --- | --- | --- | --- | --- | --- | --- | --- | --- | --- | --- | --- |
| COc1ccc(C(N)=NOC(=O)c2ccccc2-c2ccccc2)cc1OC | no effect | 133.2 ±3.0 | 101.4 ±6.2 | reduce the NECA potency | – | – | – | – | – | – | – | – |
| Nc1nc(-c2ccncc2)ncc1S(=O)(=O)Cc1ccco1 | – | – | – | – | – | – | – | – | – | – | > 100 µM | – |
| NC(=NOC(=O)c1ccccc1-c1ccccc1)c1ccc(Cl)cc1 | no effect | 143.6 ±7.6 | 108.7 ±7.8 | reduce the NECA potency | – | – | – | – | – | – | – | antagonistic potency (A3R [1]): > 1 µM |
| CCOC(=O)c1cn(C(=O)CCSc2ccc(OC)cc2)nc1N | – | – | – | – | – | – | – | – | – | – | > 100 µM | – |

Now from value to compound, other results behind:

| effect on NECA potency / antagonism (A3R [1]) | True Basal (A3R [1]) | Span (A3R [1]) | effect on NECA potency (A3R [1]) | AR subtype selectivity (A3R [1]) | pKi (rat A3R) | True Basal (WT A3R) | Span (WT A3R) | mode of antagonism at the A3R by Schild analysis (WT A3R) | Inverse agonism pEC50 (A3R [5]) | SMILES | Ki (A2AR [2]) | also measured |
| --- | --- | --- | --- | --- | --- | --- | --- | --- | --- | --- | --- | --- |
| – | 129.3 ±4.9 | 109.2 ±7.3 | – | antagonists at both the A1R and A3R | 5.93 ± 0.04 | 142 ···· | 125.1 ±4.9 | competitive antagonists | 5.83 ±0.2 | NC(=O)c1sc(-c2ccsc2)cc1NC(=O)/C=C/c1ccsc1 | 4.69 µM | mode of antagonism at the A1R by Schild analysis (A1R [3]): competitive antagonists; Emin (A1R [3]; 0.1 µM compound): 3.3 ±5.6 % forskolin response; Span (A1R [3]; 0.1 µM compound): 128.3 ±7.2; True Basal (A1R [3]; [8]): 117.6 ±3.2; Basal (A1R [3]; 0.1 µM compound): 131.6 ±5.1; Emin (A1R [3]; 1 µM compound): 0.1 ±6.3 % forskolin response; Span (A1R [3]; 1 µM compound): 150 ·; True Basal (A1R [3]; 1 µM compound + forskolin only): 120 ·; Basal (A1R [3]; 1 µM compound): 133 ·; Emin (A1R [3]; 10 µM compound): 12.2 ±4.7 % forskolin response; Span (A1R [3]; 10 µM compound): 166 ··; True Basal (A1R [3]; [9]): 170 ····; Basal (A1R [3]; 10 µM compound): 178 ····; inverse agonism at the A1R (A1R [4]): inverse agonists; Inverse agonism pEC50 (A1R [4]): 6.99 ±0.2; antagonism at the A2AR (A2AR [6]): weak antagonism |
| no effect | 143.0 ±5.9 | 117.3 ±6.6 | reduce the NECA potency | – | – | – | – | – | – | NC(=NOC(=O)c1ccccc1-c1ccccc1)c1ccc(Br)cc1 | – | antagonistic potency (A3R [1]): > 1 µM |
| – | 143.1 ±1.3 | 106.8 ±5.5 | – | antagonists at both the A1R and A3R | 5.71 ± 0.03 | 128 ·· | 115.7 ±8.2 | competitive antagonists | 6.96 ±0.2 | NC(=O)c1sc(-c2ccccc2)cc1NC(=O)c1ccccc1 | 7.29 µM | mode of antagonism at the A1R by Schild analysis (A1R [3]): competitive antagonists; Emin (A1R [3]; 0.1 µM compound): -5.3 ±9.3 % forskolin response; Span (A1R [3]; 0.1 µM compound): 135.4 ±6.7; True Basal (A1R [3]; [8]): 110.9 ±4.4; Basal (A1R [3]; 0.1 µM compound): 130.1 ±2.6; Emin (A1R [3]; 1 µM compound): -3.7 ±3.8 % forskolin response; Span (A1R [3]; 1 µM compound): 98.6 ±5.6; True Basal (A1R [3]; 1 µM compound + forskolin only): 113.6 ±18.1; Basal (A1R [3]; 1 µM compound): 106.6 ±8.5; Emin (A1R [3]; 10 µM compound): 8.1 ±2.0 % forskolin response; Span (A1R [3]; 10 µM compound): 154 ···; True Basal (A1R [3]; [9]): 141 ·; Basal (A1R [3]; 10 µM compound): 137 ··; inverse agonism at the A1R (A1R [4]): inverse agonists; Inverse agonism pEC50 (A1R [4]): 7.08 ±0.2; antagonism at the A2AR (A2AR [6]): weak antagonism |
| – | 148.5 ±5.4 | 136.5 ±2.5 | – | A3R selective antagonists | 6.37 ± 0.06 | 131 ··· | 119.1 ± 3.5 | competitive antagonists | 6.01 ± 0.1 | NC(=O)c1sc(-c2ccc(Cl)cc2)cc1NC(=O)CSc1cc(C(F)(F)F)cc(C(F)(F)F)c1 | > 100 µM | pKi human A3R (A3R [7]): 5.81 |
